Reference: PubChem BioAssay AID2014 (Sanford-Burnham Center for Chemical Genomics, 2009)
The list shows a part of the results, in another mix than the full data. Active and inactive are the calls of the source. The rule behind the calls is not given here.

By UniProt entry, the sequences of proteins in these tests, tags left out.
UniProt P11940, whole entry, looked up: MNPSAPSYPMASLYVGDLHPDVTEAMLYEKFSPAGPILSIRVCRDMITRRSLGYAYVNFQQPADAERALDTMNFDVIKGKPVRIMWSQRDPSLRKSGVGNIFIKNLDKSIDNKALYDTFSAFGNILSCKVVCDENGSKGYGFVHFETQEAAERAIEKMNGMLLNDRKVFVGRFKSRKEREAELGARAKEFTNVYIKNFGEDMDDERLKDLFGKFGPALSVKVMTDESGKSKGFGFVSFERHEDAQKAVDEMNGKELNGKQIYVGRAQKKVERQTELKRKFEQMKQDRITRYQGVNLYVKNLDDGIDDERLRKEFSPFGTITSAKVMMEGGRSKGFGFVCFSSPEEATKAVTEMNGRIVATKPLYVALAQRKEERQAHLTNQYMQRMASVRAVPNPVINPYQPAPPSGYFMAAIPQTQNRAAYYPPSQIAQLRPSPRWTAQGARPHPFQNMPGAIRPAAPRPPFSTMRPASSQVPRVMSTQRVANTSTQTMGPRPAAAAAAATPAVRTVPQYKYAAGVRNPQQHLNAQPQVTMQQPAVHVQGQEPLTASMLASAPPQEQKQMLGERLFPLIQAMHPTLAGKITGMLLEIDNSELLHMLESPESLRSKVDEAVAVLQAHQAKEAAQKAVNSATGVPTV

biological target: Polyadenylate-binding protein 1 (Homo sapiens) (UniProt P11940); assay: PABP poly(A) RNA binding inhibitors, primary screen, biochemical, fluorescence polarization, uHTS (AID 2014); conditions: at 35 µM, stronger effect = higher value;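 note: calls also rest on retests at 20 µM and on dose response follow-up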

**Q.** CS(=O)(=O)c1cc([N+](=O)[O-])c2no[n+]([O-])c2c1 was tested. Which inhibition did it give?
**A.** active: 41.2%

**Q.** How did the inhibition turn out when CCOC(=O)Nc1ccc([As](=O)(O)O)c(O)c1 was run?
**A.** active: 30.2%

**Q.** How did the inhibition turn out when O=[N+]([O-])c1cc([N+](=O)[O-])c(CCN2CCOCC2)c([N+](=O)[O-])c1 was run?
**A.** active: 44.1%

**Q.** How did the inhibition turn out when C[N+]1=C2C=CC=CC=C2SC12C([N+](=O)[O-])=CC([N+](=O)[O-])=C[C-]2[N+](=O)[O-] (stereo not given) was run?
**A.** active: 76.6%

**Q.** Which inhibition does the source give for CC(=O)NC(SC(=S)N(C)C)C(Cl)(Cl)Cl (stereo not given) here?
**A.** active: 118%
